Data: publication PMC3510444, “LC3C, Bound Selectively by a Noncanonical LIR Motif in NDP52, Is Required for Antibacterial Autophagy” (Molecular Cell, 2012)

What was measured:
human ATG8 orthologs = assay: Immunoprecipitation / LUMIER binding assay against GST-tagged human ATG8 orthologs; conditions: immunoprecipitation and/or LUMIER, lysates of 293ET cells, GST-tagged ATG8 orthologs on beads
Description: These were performed as described previously ([Barrios-Rodiles et al., 2005]; [Ryzhakov and Randow, 2007]). […]
encoding GABARAP; 5’-[…]-3’ and 5’-
-3’ for GABARAPL1/GEC1, encoding GABARAPL1; 5’-
GABARAPL2/GATE-16, encoding GABARAPL2.
Immunoprecipitation and Western blot. Post-nuclear supernatants from 2 x 10^6 HeLa cells were obtained following lysis in 150 mM NaCl, 0.1% (v/v) Triton-X100, 20 mM Tris–HCl (pH 7.4), 5 mM EDTA and Complete protease inhibitors (Roche).
Visualization following immunoblotting was performed using ECL detection reagents […]
LUMIER assay.(Ryzhakov and Randow, 2007; Barrios-Rodiles et al., 2005) Binding assays with pairs of putative interactors, one fused to luciferase and the other fused to GST or Flag, were performed in LUMIER lysis buffer (150 mM NaCl, 0.1% (v/v) Triton-X100, 20 mM Tris–HCl (pH 7.4), 5% (v/v) glycerol, 5 mM EDTA and Complete protease inhibitors (Roche)). GST-fusion proteins were immobilized on beads before incubation for 2 h with equal amounts of luciferase tagged binding partners, as determined by luciferase activity. After washing in lysis buffer, proteins were eluted with glutathione in Renilla lysis buffer (Promega). Relative luciferase activity represents the ratio of activity eluted from beads and present in lysates. […]

LC3C = molecular target: T1, LC3C (Homo sapiens, UniProt Q9BXW4); assay: Fluorescence anisotropy assay of FITC-labeled NDP52 CLIR peptides against LC3C; format: binding; conditions: fluorescence anisotropy equilibrium, FITC-Ahx-labeled 14-mer NDP52 peptide (aa 128–141), 100 nM mixed with equal volume of serially diluted LC3C; 50 mM Tris, 50 mM NaCl, pH 8.0; errors (Fig. 5B) = standard deviation, triplicate
T1 construct: GST (cleaved yes); made in house; host or cells: E. coli BL21

Compound	binding selectivity among human ATG8 orthologs (human ATG8 orthologs)	Kd (LC3C) [nM]
p62: ubiquitin-binding autophagy receptor	interacted nonselectively with all human ATG8 orthologs	
CC[C@H](C)[C@H](NC(=O)[C@H](CC(=O)O)NC(=O)[C@H](CCC(=O)O)NC(=O)[C@H](CCC(=O)O)NC(=O)[C@H](CC(N)=O)NC(=O)[C@H](CCC(=O)O)NC(=O)CCCCCNC(=S)Nc1ccc2c(c1)C(=O)OC21c2ccc(O)cc2Oc2cc(O)ccc21)C(=O)N[C@@H](CC(C)C)C(=O)N[C@H](C(=O)N[C@H](C(=O)N[C@H](C(=O)N[C@H](C(=O)N[C@@H](CCC(N)=O)C(=O)NCC(=O)N[C@@H](CCC(=O)O)C(=O)O)[C@@H](C)O)[C@@H](C)O)C(C)C)C(C)C [CLIR^WT]		1610 ± 120
